The results in this text go back to ChEMBL document CHEMBL1144531, “Novel selective inhibitors of neutral endopeptidase for the treatment of female sexual arousal disorder” (Bioorg Med Chem, 2007).

For the data set, the species on record is Homo sapiens. Description: Protein binding in human plasma at 1 ug/ml by equilibrium dialysis. The settings on record: read-out: PPB (converted). On the technique in general: Equilibrium dialysis compares concentrations on both sides of a semipermeable membrane.

For `COCC[C@H](CC1(C(=O)NCCCc2ccc(Cl)cc2)CCCC1)C(=O)O`, the fraction unbound at 1 ug/ml is 0.017.

Consider `CCC[C@H](CC1(C(=O)Nc2nnc(CC)s2)CCCC1)C(=O)O`, for which the fraction unbound at 1 ug/ml was 0.021.
